Literature values as cited in patent publication US10308662B2, “Thienopyranones as kinase and epigenetic inhibitors” (SignalRx Pharmaceuticals, Inc., priority 2014, dated 2019).

Target: BRD4-1 (Homo sapiens (Human), UniProt O60885)
Conditions: cited from earlier work

For `CC[C@@H]1C(=O)N(C)c2cnc(Nc3ccc(C(=O)N[C@H]4CC[C@H](N5CCN(CC6CC6)CC5)CC4)cc3OC)nc2N1C(C)C` [BI6727], the BRD4-1 inhibition is listed as “some degree of BRD4-1 inhibitory activity”.
